The source of these data is PubChem BioAssay AID624202 (National Center for Advancing Translational Sciences (NCATS), 2012).

The entries are a selection whose mix differs from that of the whole data set. Activity calls are given as the source filed them. Calls come from the whole dose curve; as a rule, active = well fitted activation curve with a large enough effect; inconclusive = small, poorly fitted or top-dose-only effect; inactive = no such curve, though single readings can be large or run the other way.

This assay can be described thus: qHTS Assay to Identify Small Molecule Activators of BRCA1 Expression. Note: nearly all actives have a fitted effect of over 80% in size. Particulars: MCF7-BRCA1-FFLuc reporter, luminescence, 48 h, scaled: vehicle 0%, 10 µM genistein 100%; at 46.1 µM (top of the series) unless noted. Background: In qHTS, concentration-response curves come from the screen itself.
With `O=P1(N(CCCl)CCCl)OCCC2CCCCN21` (stereo unspecified), the activation is inactive: -10.1%.
With `O=C(NC1CCS(=O)(=O)C1)NP(=S)(Oc1ccccc1)Oc1ccccc1` (stereo unspecified) the figure was inactive: 9.6%.
The same measure for `CCNC(=S)/N=C(\N)N[N+](=O)[O-]`: inactive: 0%; for `Cc1ccc(NP(=O)(Oc2cccc(C)c2)Oc2cccc(C)c2)nc1`: inactive: 7.38%.
The same measure for `c1ccc(-c2nn[nH]n2)c(-c2nn[nH]n2)c1`: inactive: -3.94%.
As for `O=c1c2cc([N+](=O)[O-])ccc2[nH]c2c([N+](=O)[O-])cc([N+](=O)[O-])cc12`, the activation was inactive: -67.6%.
For the compound `CN(C)C(=O)Oc1noc2ccccc12`, the activation was inactive: 0%.
For the compound `CC(NC(=O)COC(=O)C(O)(c1ccccc1)c1ccccc1)c1ccccc1` (stereo unspecified), the activation is inactive: -3.42%.
With `Cc1ccccc1OP(=O)(Nc1ccccn1)Oc1ccccc1C` the figure was inactive: -17.3%; with `CC(=O)NC(SC(=S)N(CC(C)C)CC(C)C)C(Cl)(Cl)Cl` (stereo unspecified), inactive: 0.974%; with `Cc1ccc(OP(=O)(Nc2ccccn2)Oc2ccc(C)cc2)cc1`, inactive: -28.3%.
The same measure for `COC(=O)c1cc2c(s1)N=C(c1ccccc1)N(C)P2(=O)N1CCOCC1` (stereo unspecified): inactive: -1.38%; for `CCC(=O)N1C2C3N(C(=O)CC)C1C1N(C(=O)CC)C(C(N1C(=O)CC)N3C(=O)CC)N2C(=O)CC`: inactive: -23.8%; for `O=C(OC1CN2CCC1CC2)c1ccccc1` (stereo unspecified): inactive: 10.3%.
The same measure for `CCc1cc(O)c([N+](=O)[O-])c(C)c1[N+](=O)[O-]`: inactive: -5.37%.
Consider `CC(C)(C)C(=O)NC(Sc1ccccc1)C(Cl)(Cl)Cl` (stereo unspecified), for which the activation was inactive: -0.958%.
With `CCOc1ccc(C2=NCC(CBr)S2)cc1` (stereo unspecified) the figure was inactive: -5.09%.
Regarding `O=P1(Nc2nc3ccc(Cl)cc3s2)COc2ccccc2O1` (stereo unspecified), the activation was inactive: 61.8%.
As for `CC(=O)Nc1ccc(Oc2c([N+](=O)[O-])cc([N+](=O)[O-])cc2[N+](=O)[O-])cc1`, the activation was inactive: -33.7%.
As to `CC(=O)Nc1ccc([As](=O)(O)O)c(O)c1`, the activation was inactive: -12.5%.
For the compound `COC(=O)C1(C)COP(=O)(NCc2ccccc2)OC1` (stereo unspecified), the activation is inactive: -9.47%.
With `CC(=O)c1ccc(N2CC2c2ccncc2)cc1` (stereo unspecified) the figure was inactive: -9.55%; with `N#C/C(=C\c1ccc(N(CCBr)CCBr)cc1)C(N)=O`, inactive: -88.1%; with `C[C@H]1OP(=O)(Oc2ccccc2)C[C@@H]2O[C@@H]21` (stereo partly specified), inactive: 16.4%.
As for `C[C@@H]1C=CCP(=O)(Oc2ccccc2)O1` (stereo partly specified), the activation was inactive: 0%.
The same measure for `Cc1ccccc1CN(C)C(=O)COC(=O)C(O)(c1ccccc1)c1ccccc1`: inactive: -11.5%.
As to `O=P(Nc1nccs1)(c1ccccc1)c1ccccc1`, the activation is inactive: -10.1%.
Regarding `CC(C)C(=O)NC(Sc1ccccc1)C(Cl)(Cl)Cl` (stereo unspecified), the activation is inactive: 12.9%.
`C[C@H]1OP(=O)(Oc2ccccc2)[C@H](O)[C@H](O)[C@H]1N=[N+]=[N-]` (stereo partly specified): the activation is inactive: -3.86%.
With `O=P(Nc1nc2ccccc2s1)(c1ccccc1)c1ccccc1` the figure was inactive: 0%; with `COc1ccc(N)c([N+](=O)[O-])c1[N+](=O)[O-]`, inactive: -16.3%; with `Nc1ccc(CCCCOc2ccccc2)cc1`, inactive: 65.3%.
The same measure for `CN(C)C1(CNC(=O)c2ccc(Cl)c(S(N)(=O)=O)c2)CCCCC1`: inactive: -7.48%.
The same measure for `O=P(Nc1ccccn1)(c1ccc(Br)cc1)c1ccc(Br)cc1`: inactive: -3.99%; for `C(Cc1nn[nH]n1)Cc1nn[nH]n1`: inactive: -7.11%; for `Nc1ccc([As](=O)(O)c2ccc([N+](=O)[O-])cc2)cc1`: inactive: 18.4%.
In the case of `O=C(OC1CN2CCC1CC2)c1cccc(Cl)c1` (stereo unspecified), the activation was inactive: -0.966%.
On to `CC(=O)NC(SC(=S)N(C)C)C(Cl)(Cl)Cl` (stereo unspecified), for which the activation is inactive: -15.3%.
For `O=[N+]([O-])c1ncn(CCn2cnc([N+](=O)[O-])n2)n1`, the activation was inactive: 0.0766%.
On to `O=[N+]([O-])c1ccc(O)c(/C=N/Nc2ccc([N+](=O)[O-])cc2[N+](=O)[O-])c1`, for which the activation was inactive: -14.9%.
With `O=[As](O)(c1ccccc1)c1ccc(O)cc1`, the activation was inactive: 0%.
The same measure for `O=P(/N=c1/nc(-c2ccccc2)n(-c2ccccc2)s1)(Nc1ccccc1)Nc1ccccc1`: inactive: 10.3%; for `O=C(Nc1cc([As](=O)(O)O)ccc1O)c1ccccc1`: inactive: 33.5%; for `O=P1(N(CCCl)CCCl)OCCCS1` (stereo unspecified): inactive: 3.12%.
With `COC(=O)C1(C)COP(=O)(Nc2ccccc2)OC1` (stereo unspecified) the figure was inactive: -2.91%; with `O=[N+]([O-])c1cccc(NC2=NCC(CBr)S2)c1` (stereo unspecified), inactive: -2.18%.
`O=C(O)CNc1ccc([As](=O)(O)O)cc1`: the activation was inactive: 1.84%.
In the case of `CC(C)(C)C(=O)NC(Sc1ccncn1)C(Cl)(Cl)Cl` (stereo unspecified), the activation is inactive: 8.57%.
With `O=[N+]([O-])c1ncn(CCn2ncnc2[N+](=O)[O-])n1` the figure was inactive: -3.95%.
As to `CC(=O)N1C2C3N(C(C)=O)C1C1N(C(C)=O)C(C(N1C(C)=O)N3C(C)=O)N2C(C)=O`, the activation was inactive: -2.03%.
With `O=[N+]([O-])c1cccc2n[nH]nc12` the figure was inactive: -10.1%.
In the case of `O=[N+]([O-])c1cc([N+](=O)[O-])c(CCNc2ccccc2)c([N+](=O)[O-])c1`, the activation is inactive: -63.7%.
On to `CCc1nc2c(n1)c1c(non1O)c1c2no[n+]1[O-]`, for which the activation is inactive: -96.8%.
On to `Cc1ccc(NP(=O)(Oc2ccccc2)Oc2ccccc2)nc1`, for which the activation was inactive: 5.95%.
As to `COc1ccc(C2=NCC(CBr)S2)cc1` (stereo unspecified), the activation was inactive: -5.63%.
Take `CN(C)C(=O)OCCc1n(C)cc[n+]1C`: the activation is inactive: 11.1%.
The same measure for `CC(C)c1nc(Nc2ccccc2)n(P(=O)(N(C)C)N(C)C)n1`: inactive: 0.742%.
Consider `CC(C)=N/N=C(\N)N[N+](=O)[O-]`, for which the activation is inactive: 0.737%.
Regarding `CC1CCN(C(=O)Oc2c(Cl)cc(Cl)c3cccnc23)CC1`, the activation is inactive: 31.4%.
The same measure for `c1cc(-c2nn[nH]n2)ccc1-c1nn[nH]n1`: inactive: 9.47%.
The same measure for `Nc1ccc([As](=O)(O)c2ccc(N)cc2)cc1`: inactive: -3.89%.
The same measure for `CCN(/C(=N/P(=O)(N1CCOCC1)N1CCOCC1)N1CCOCC1)c1ccc(OC)cc1`: inactive: 0.726%; for `Cc1ccc(OP(=O)(Nc2nccs2)Oc2ccc(C)cc2)cc1`: inactive: -3.1%; for `COc1ccccc1OP(=O)(Nc1ccc(C)cn1)Oc1ccccc1OC`: inactive: -6.67%.
For `CN1CCCC(OC(=O)C(c2ccccc2)c2ccccc2)C1` (stereo unspecified), the activation is inactive: -25.8%.
The same measure for `Clc1ccc(Cl)c(NC2=NCC(CBr)S2)c1` (stereo unspecified): inactive: -15.1%; for `NC(=O)c1cc([N+](=O)[O-])cc([N+](=O)[O-])c1N`: inactive: -9.12%; for `O=[N+]([O-])c1cc2c(cc1[N+](=O)[O-])OCO2`: inactive: -44.9%.
The same measure for `Cc1ccc(N/C(=N/P(=O)(N2CCOCC2)N2CCOCC2)N2CCOCC2)cc1`: inactive: 13.1%; for `CN(C(=O)Cc1ccc(Cl)c(Cl)c1)[C@H]1CCCC[C@H]1N1CCCC1`: inactive: -3.21%.
With `O=[N+]([O-])C1C(O)C(O)C([N+](=O)[O-])C(O)C1O` (stereo unspecified) the figure was inactive: 3.46%; with `Nc1cc(N)c2nonc2c1[N+](=O)[O-]`, inactive: -1.41%; with `CC(C)CC(=O)NC(Sc1ccc(Cl)cc1)C(Cl)(Cl)Cl` (stereo unspecified), inactive: -20.7%.
Regarding `O=C(NC(Sc1ccncn1)C(Cl)(Cl)Cl)c1ccccc1` (stereo unspecified), the activation is inactive: -7.71%.
The same measure for `Oc1ccccc1CNc1ccccn1`: inactive: 44.4%; for `CN(C(=O)Cc1ccc(Cl)c(Cl)c1)[C@H]1CCCC[C@@H]1N1CCCC1`: inactive: 0%.
As to `Cc1ccc(NP(=O)(Oc2ccccc2F)Oc2ccccc2F)nc1`, the activation is inactive: 13.6%.
Consider `Cc1cc(SC(NC(=O)c2ccc(F)cc2)C(Cl)(Cl)Cl)ncn1` (stereo unspecified), for which the activation is inactive: -17.7%.
With `CCOP(=O)(Nc1ccccc1)OCC` the figure was inactive: 9.92%; with `CCCC1OP(N)(=O)OCC1CC` (stereo unspecified), inactive: -0.238%.
In the case of `CC(=O)Nc1ccc([As](=O)(O)O)cc1`, the activation was inactive: -6.7%.
The same measure for `O=C(O)c1ccccc1[As](=O)(O)O`: inactive: -12.3%; for `O=P(Nc1nc2ccc(Cl)cc2s1)(c1ccccc1)c1ccccc1`: inactive: -50%; for `CN(C)P(=O)(N(C)C)n1c(Nc2ccccc2)nnc1-c1ccccc1`: inactive: 10.1%.
The same measure for `CCN(N=Nc1nonc1N)c1nonc1N`: inactive: 3.64%.
With `Nc1cccc2ccc([As](=O)(O)O)cc12` the figure was inactive: -1.49%; with `Cc1ccc2nc3c(c(C)c2c1)CC(C(Cl)Cl)S3` (stereo unspecified), inactive: 15.3%; with `ClCCN(CCCl)c1ccc(CC2C=CC=C2)cc1`, inactive: -7.48%.
`Cc1ccc(OP(=O)(Nc2ccc([N+](=O)[O-])cn2)Oc2ccc(C)cc2)cc1`: the activation is inactive: 1.11%.
The same measure for `[N-]=[N+]=NC1CCCCC1NC(=O)c1cc([N+](=O)[O-])cc([N+](=O)[O-])c1` (stereo unspecified): inactive: 0%; for `O=[N+]([O-])c1ccc(-c2cc([N+](=O)[O-])c(O)c([N+](=O)[O-])c2)cc1`: inactive: -15%; for `COc1cc(C(=O)NCC2(N3CCOCC3)CCCCC2)ccc1OCC(C)C`: inactive: 9.72%.
With `C[As](=O)(O)c1cccc(C(=O)O)c1` the figure was inactive: -5.55%; with `O=[As](O)(c1ccc(O)cc1)c1ccccc1O`, inactive: 0%; with `O=[N+]([O-])c1cc([N+](=O)[O-])c(-c2ccn[nH]2)s1`, inactive: -95.1%.
With `CC(C)NC(=O)NP(=O)(Oc1ccccc1)Oc1ccccc1`, the activation was inactive: 3.86%.
In the case of `CCN(CC)C(=S)SC(NC=O)C(Cl)(Cl)Cl` (stereo unspecified), the activation is inactive: -32.8%.
With `O=C(OC1CN2CCC1CC2)c1cccc2[nH]cnc12` (stereo unspecified), the activation is inactive: -4.41%.
The same measure for `COC(=O)C1(C)COP(=O)(N2CCCCCC2)OC1` (stereo unspecified): inactive: -0.0497%; for `CC(C)c1ccc(OP(=O)(Nc2ccccn2)Oc2ccccc2F)cc1` (stereo unspecified): inactive: 22.2%; for `ClCCSc1nnc(-c2cccnc2)o1`: inactive: 64.9%.
